Results on five molecules are retold here after patent publication US11667602B2, “Compounds and their use” (AstraZeneca AB, priority 2020, dated 2023).

This assay addresses T1, human RXFP1 (Homo sapiens, UniProt Q9HBX9).
T1 sequence (Q9HBX9 1-757): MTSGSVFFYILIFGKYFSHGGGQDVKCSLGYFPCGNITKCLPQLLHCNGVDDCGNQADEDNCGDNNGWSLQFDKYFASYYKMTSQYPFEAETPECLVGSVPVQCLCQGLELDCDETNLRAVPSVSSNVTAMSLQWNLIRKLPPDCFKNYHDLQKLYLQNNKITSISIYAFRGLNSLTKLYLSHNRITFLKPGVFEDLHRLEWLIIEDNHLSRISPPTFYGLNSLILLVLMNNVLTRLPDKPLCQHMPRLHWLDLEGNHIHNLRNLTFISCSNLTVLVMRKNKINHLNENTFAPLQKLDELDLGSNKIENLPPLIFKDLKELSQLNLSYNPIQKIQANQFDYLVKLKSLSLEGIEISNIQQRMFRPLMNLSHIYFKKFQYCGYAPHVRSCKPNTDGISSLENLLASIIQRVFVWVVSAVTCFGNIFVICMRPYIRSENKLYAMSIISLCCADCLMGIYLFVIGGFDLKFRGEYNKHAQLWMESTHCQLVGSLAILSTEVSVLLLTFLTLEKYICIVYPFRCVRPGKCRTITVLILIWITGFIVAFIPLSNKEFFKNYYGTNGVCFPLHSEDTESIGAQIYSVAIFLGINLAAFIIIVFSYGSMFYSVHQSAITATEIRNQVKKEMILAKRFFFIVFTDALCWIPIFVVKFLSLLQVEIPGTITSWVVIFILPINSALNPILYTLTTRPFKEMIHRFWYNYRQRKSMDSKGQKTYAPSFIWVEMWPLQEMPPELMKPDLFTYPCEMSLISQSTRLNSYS
Briefly: RXFP1 Hu cAMP (Test A). Also on record: expressed in transfected cells; host or cells: Jump-In T-REx CHO-K1 cells (ThermoFisher), induced with 10 ng/ml doxycycline for 24 h. The class given is cell-based.

SMILES strings stand for the structures.

For the molecule `COc1cc(F)c(O[C@H]2CC[C@@](C)(C(=O)O)CC2)cc1C(=O)N[C@@H]1[C@H]2CC[C@H](C2)[C@@H]1C(=O)NCC(C)C` [Example 34, (1S,4s)-4-(2-Fluoro-5-(((1S,2R,3S,4R)-3-(isobutylcarbamoyl)bicyclo[2.2.1]heptan-2-yl)carbamoyl)-4-methoxyphenoxy)-1-methylcyclohexane-1-carboxylic acid], the “Test A Sinf” value was 103%.

For `COc1c(C#N)cc(O[C@H]2CC[C@@](C)(C(=O)O)CC2)cc1C(=O)N[C@@H]1[C@H]2CC[C@H](C2)[C@@H]1C(=O)NCC1(C)CCC1` [Example 404], the “Test A Sinf” value worked out at 109%. Take `COc1cc(F)c(O[C@H]2CC[C@@](C)(C(=O)O)CC2)cc1C(=O)N[C@@H]1[C@H]2CC[C@H](C2)[C@@H]1C(=O)NCC(C)(C)C` [Example 35, (1S,4s)-4-(2-Fluoro-4-methoxy-5-(((1S,2R,3S,4R)-3-(neopentylcarbamoyl)bicyclo[2.2.1]heptan-2-yl)carbamoyl)phenoxy)-1-methylcyclohexane-1-carboxylic acid]: the “Test A Sinf” value is listed as 101%.

On to `COc1ccc(O[C@H]2CC[C@@](C)(C(=O)O)CC2)cc1C(=O)N[C@@H]1[C@H]2CC[C@H](C2)[C@@H]1C(=O)NCC1(C)CCC1` [Example 381], for which the “Test A Sinf” value amounted to 114%. Then `COc1c(F)cc(O[C@H]2CC[C@@](C)(C(=O)O)CC2)cc1C(=O)N[C@@H]1[C@H]2CC[C@H](C2)[C@@H]1C(=O)NCC1(C)CCC1` [Example 374], with 102%.
